Earlier results, collected in patent US20100267635A1, “USE OF PROTEASE INHIBITORS AND GRF MOLECULES IN COMBINATION THERAPY” (THERATECHONOLGIES INC., priority 2009, published 2010).
This is a selection: effects in other tests are not listed, and their absence says nothing.

Design: key to the marks not given beside the values
Settings: combination with ritonavir; cited from earlier work

For CCC(=O)N(c1ccccc1)C1CCN(CCc2ccccc2)CC1, the “Risk (drug interaction with ritonavir), left-hand column” value is given as “D”.
